In publication PMC11558128 (Advanced Science, 2024):
Numbering of substitutions follows the chain as printed.

Tests used:
Test in all cases: cell-based
Settings in all cases: SEM
[1] = target: T1, rKv4.2 V278A (Rattus norvegicus, UniProt Q63881, V278A)
T1 construct: expressed in transfected cells; host or cells: HEK293T
T1 sequence (Q63881 1-630 V278A): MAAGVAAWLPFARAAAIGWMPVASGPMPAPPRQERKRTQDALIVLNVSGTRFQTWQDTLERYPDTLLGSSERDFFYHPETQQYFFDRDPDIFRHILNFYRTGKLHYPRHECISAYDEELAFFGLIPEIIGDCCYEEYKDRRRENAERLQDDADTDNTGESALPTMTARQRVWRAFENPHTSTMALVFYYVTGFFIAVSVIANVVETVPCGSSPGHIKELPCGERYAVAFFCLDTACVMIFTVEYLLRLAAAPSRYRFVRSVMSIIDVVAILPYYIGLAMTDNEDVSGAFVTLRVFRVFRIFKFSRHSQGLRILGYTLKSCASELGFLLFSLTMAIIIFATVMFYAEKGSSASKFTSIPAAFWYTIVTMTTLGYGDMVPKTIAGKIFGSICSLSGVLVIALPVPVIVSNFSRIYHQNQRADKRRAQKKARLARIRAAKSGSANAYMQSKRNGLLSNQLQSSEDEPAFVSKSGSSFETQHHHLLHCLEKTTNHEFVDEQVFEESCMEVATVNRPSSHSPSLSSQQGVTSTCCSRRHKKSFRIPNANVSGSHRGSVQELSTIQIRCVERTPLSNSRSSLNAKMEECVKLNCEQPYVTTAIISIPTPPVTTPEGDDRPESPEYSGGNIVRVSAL

[2] = target: T2, rKv4.2 E283K (Rattus norvegicus, UniProt Q63881, E283K)
T2 construct: expressed in transfected cells; host or cells: HEK293T
T2 sequence (Q63881 1-630 E283K): T1 sequence (Q63881 1-630 V278A) with A278V, E283K

[3] = target: T3, rKv4.2 D284K (Rattus norvegicus, UniProt Q63881, D284K)
T3 construct: expressed in transfected cells; host or cells: HEK293T
T3 sequence (Q63881 1-630 D284K): T1 sequence (Q63881 1-630 V278A) with A278V, D284K

[4] = target: T4, rKv4.2 (Rattus norvegicus, UniProt Q63881)
T4 construct: expressed in transfected cells; host or cells: HEK293T
T4 sequence (Q63881 1-630): T1 sequence (Q63881 1-630 V278A) with A278V

CC[C@H](C)[C@H](NC(=O)[C@H](CCCCN)NC(=O)[C@H](Cc1ccc(O)cc1)NC(=O)[C@H](CCCCN)NC(=O)[C@@H]1CSSC[C@@H]2NC(=O)[C@H](CCC(=O)O)NC(=O)[C@H](CC(=O)O)NC(=O)[C@H](CCCCN)NC(=O)CNC(=O)[C@@H]3CCCN3C(=O)[C@H]([C@@H](C)O)NC(=O)[C@@H]3CSSC[C@H](NC(=O)[C@H](C(C)C)NC(=O)[C@H](Cc4c[nH]cn4)NC(=O)[C@H](CC(N)=O)NC(=O)[C@@H]4CCCN4C(=O)[C@H](CSSC[C@H](NC(=O)[C@H](C)N)C(=O)N[C@@H](CCCCN)C(=O)NCC(=O)N[C@@H]([C@@H](C)CC)C(=O)N[C@@H](Cc4ccccc4)C(=O)N[C@@H](C(C)C)C(=O)N[C@@H]([C@@H](C)O)C(=O)N3)NC2=O)C(=O)N[C@@H](CO)C(=O)N[C@@H](CO)C(=O)N[C@@H](CCCCN)C(=O)N[C@@H](Cc2c[nH]cn2)C(=O)N[C@@H](CCCCN)C(=O)N[C@@H](Cc2c[nH]c3ccccc23)C(=O)N1)C(N)=O [Cl6b]
IC50 [1]: 0.145 ± 0.02 µM | IC50 [2]: 1.64 ± 0.386 µM | IC50 [3]: 15.4 ± 6.16 µM | IC50 [4]: 0.114 ± 0.032 µM
